Measurements published in BindingDB's records for doi:10.1021/acsmedchemlett.5b00050 (Genomics Institute of The Novartis Research Foundation, 2015).

Assay: Inhibition of Tel-fused TRKB (unknown origin) overexpressed in mouse BA/F3 cells assessed as inhibition of cell proliferation after 48 hrs by luciferase reporter gene assay in absence of recombinant mouse IL3

IC50: 47 nM
SMILES: N#Cc1ccc(-c2cnc3ccc(N4CCOCC4c4cccc(F)c4)nn23)cc1 (racemic)
